{
  "sequences": {"note": "Chains of the proteins cited; added tags and fusions are not shown.", "UniProt P97266, whole entry": "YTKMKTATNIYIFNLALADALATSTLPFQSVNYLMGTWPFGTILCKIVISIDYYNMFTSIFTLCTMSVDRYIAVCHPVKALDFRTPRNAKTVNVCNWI"},
  "source": "ChEMBL document CHEMBL1131540",
  "about": "“Modifications of the 4,4'-residues and SAR studies of Biphalin, a highly potent opioid receptor active peptide” (Bioorg Med Chem Lett, 1998)",
  "biological_target": "Mu-type opioid receptor (Cavia porcellus, UniProt P97266)",
  "assay": "Compound was tested for binding affinity towards mu opioid receptor in guinea pig brain homogenates using [3H]CTOP as radioligand",
  "assay_type": "tissue-based",
  "data": [
    {"smiles": "C[C@@H](NC(=O)[C@@H](N)Cc1ccc(O)cc1)C(=O)NCC(=O)N[C@@H](Cc1ccccc1)C(=O)NNC(=O)[C@H](Cc1ccccc1)NC(=O)CNC(=O)[C@@H](C)NC(=O)[C@@H](N)Cc1ccc(O)cc1", "values": [
      {"measurement": "Ki", "result": 2.8, "unit": "nM"}
    ]}
  ]
}
